Screening results (PubChem BioAssay)
AF4-AF9 inh: inhibitors of AF4 peptide binding to AF9, primary screen, biochemical, AlphaScreen, biotin-AF4 peptide, FLAG-AF9, single point. inhibition, % at 10 µM. Protein AF-9 (Homo sapiens), P42568. AID 651704, 2012. 350,000 tested, 0.47% active;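 active means every replicate reaching a set inhibition limit, whatever the replicate mean, cut at about 25% in these data; inconclusive means mean inhibition reaches that limit but some replicates miss it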
RAD52 anneal inh: RAD52 DNA annealing inhibitors, primary screen, biochemical, FRET, single point, set 2; DNA repair protein RAD52 homolog (Homo sapiens), P43351; recombinant RAD52 DNA annealing, FRET fluorescence; inhibition, % at 18.7 µM; 360,000 tested, 0.46% active; AID 651710, 2012;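 active means every replicate showing at least 50% inhibition; inconclusive means mean inhibition at least 50% but not in every replicate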
SIRT5 inh: SIRT5 desuccinylase inhibitors, primary screen, biochemical, fluorescence imaging, single point, set 5; 330,000 tested, 1.1% active; inhibition, % at 15 µM; AID 652115, 2013; Purified SirT5, succinyl-peptide AMC, trypsin-coupled fluorescence; in the data active means inhibition above about 15%; inconclusive means no clear call, values can overlap the other calls
RAD54 inh: inhibitors of human RAD54 branch migration, primary screen, biochemical, fluorescence, single point; DNA repair and recombination protein RAD54-like (Homo sapiens), Q92698; AID 602329, 2012; 360,000 tested, 0.14% active; RAD54 Holliday junction branch migration, FAM/BHQ fluorescence; inhibition, % at 10.4 µM;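 active means mean normalized replicate activity at least 40 and at least half of replicates scoring 40 or more; inconclusive means only one of the two criteria met; inactive means mean below 40 and under half of replicates reaching 40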;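 further: inhibitors cause a drop in the FAM fluorescence signal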
UUG fidelity: yeast start codon fidelity modulation | S. cerevisiae UUG-firefly luciferase reporter, luminescence/redox ratio | activity score, % at 18.7 µM | 0.13% of 350,000 active | AID 602363;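 active means replicate mean at a twofold rise or more, about +100% in these data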;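 further: firefly luciferase made from a UUG start codon reports start codon fidelity; reporter light over untreated wells divided by growth signal over untreated wells; some hits fall short of that in this replicate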
E-sel inducer: E-selectin induction in HUVECs, primary screen, imaging, HUVEC, immunofluorescence imaging, single point; AID 686992, 2013; 260,000 tested, 0.37% active; activation, % at 7.58 µM; normalized: neutral wells 0, TNF-alpha wells 100;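 active means mean E-selectin-positive cell signal at least 10% of the positive control, reached in at least 60% of replicates, without over 20% cell loss; inconclusive means no rule given, readout overlaps actives, possibly toxicity-flagged; inactive means the rest, including those meeting only one limit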
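Assay system: HUVEC primary endothelial cells. Input: 3,000 HUVEC seeded per well. Doses: one compound dose added by pin transfer. Read-out basis: % PE-positive cells. Benchmarks: TNF-alpha high, DMSO low. Detection: immunofluorescence imaging. Buffer or medium: EGM-2, gelatin.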
Hits are given with their value; – = inactive; ? = inconclusive; · = no result; ! = not active in a repeat. An excerpt weighted towards active compounds, which were near 1.8% of everything screened.

The chains behind the UniProt entries cited, without tags or fusion partners.
Protein AF-9 (Homo sapiens), P42568, UniProt P42568, whole entry, looked up: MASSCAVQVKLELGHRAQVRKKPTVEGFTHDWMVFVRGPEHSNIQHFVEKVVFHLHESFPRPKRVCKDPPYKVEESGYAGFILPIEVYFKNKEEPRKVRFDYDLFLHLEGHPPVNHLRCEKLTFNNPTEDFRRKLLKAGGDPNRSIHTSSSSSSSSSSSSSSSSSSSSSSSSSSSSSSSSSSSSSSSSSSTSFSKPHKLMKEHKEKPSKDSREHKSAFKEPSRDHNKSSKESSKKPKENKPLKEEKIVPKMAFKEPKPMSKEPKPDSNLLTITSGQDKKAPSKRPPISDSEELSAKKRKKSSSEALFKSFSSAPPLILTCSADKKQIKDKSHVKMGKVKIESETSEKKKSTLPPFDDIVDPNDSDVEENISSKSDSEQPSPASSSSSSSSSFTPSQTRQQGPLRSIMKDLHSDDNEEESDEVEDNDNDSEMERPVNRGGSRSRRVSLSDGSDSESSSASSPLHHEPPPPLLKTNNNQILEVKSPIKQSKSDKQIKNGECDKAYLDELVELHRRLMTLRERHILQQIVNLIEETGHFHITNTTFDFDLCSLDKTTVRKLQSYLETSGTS
DNA repair protein RAD52 homolog (Homo sapiens), P43351, UniProt P43351, whole entry, looked up: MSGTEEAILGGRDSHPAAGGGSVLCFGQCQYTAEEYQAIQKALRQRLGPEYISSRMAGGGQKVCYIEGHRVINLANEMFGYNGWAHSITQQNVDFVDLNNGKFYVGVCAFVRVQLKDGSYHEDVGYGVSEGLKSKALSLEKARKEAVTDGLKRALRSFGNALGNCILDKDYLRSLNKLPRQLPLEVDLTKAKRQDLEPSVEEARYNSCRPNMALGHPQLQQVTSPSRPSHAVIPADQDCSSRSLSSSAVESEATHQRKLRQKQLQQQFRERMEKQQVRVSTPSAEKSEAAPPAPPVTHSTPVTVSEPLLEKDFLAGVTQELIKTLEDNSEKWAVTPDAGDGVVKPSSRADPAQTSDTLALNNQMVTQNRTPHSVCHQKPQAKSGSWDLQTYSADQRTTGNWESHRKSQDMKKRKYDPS

SMILES | AF4-AF9 inh | RAD52 anneal inh | SIRT5 inh | RAD54 inh | UUG fidelity | E-sel inducer
CO[C@H]1CN(C)C(=O)c2ccc(NC(=O)Nc3ccccc3F)cc2OC[C@H](C)N(C(C)=O)C[C@H]1C | – | – | – | – | – | –
CC(=O)NC[C@H]1[C@@H](c2ccc(C3=CCCC3)cc2)[C@@H](CO)N1C(=O)C1CC1 | – | – | – | · | · | –
O=C(NC1CCCCC1)c1ccc(S(=O)(=O)c2ccccc2)cc1 | – | – | 40 | · | · | ·
O=C(NC1CC1)c1ccc(S(=O)(=O)NC2CCCCCC2)cc1 | · | · | · | – | – | ·
CC(C)NC(=O)Nc1ccc2c(c1)C(=O)N(C)[C@H]1CC[C@@H](CC(=O)NC3CCCCC3)O[C@H]1CO2 | · | · | · | – | – | –
CC(C)(C)C(=O)c1c(N)[nH]c(C(=O)c2ccccc2)c1-c1ccc(Br)cc1 | – | – | 20 | · | · | –
COC(=O)c1c(N)[nH]c(C(=O)c2ccccc2)c1-c1ccc(Br)cc1 | – | – | – | · | · | –
CCn1cc(C(=O)O)c(=O)c2cnc(N3CCN(C(=S)Nc4ccccc4Cl)CC3)nc21 | – | – | 16 | – | – | –
Cc1ccccc1C(=O)NC(=S)NCCC1=CCCCC1 | – | – | 35 | · | · | ·
O=C(NCCN1CCOCC1)C1CCN(c2nc3ccccc3o2)CC1 | 40 | – | – | – | – | ·
O=C(NCCC1=CCCCC1)C1CCN(c2nc3ccccc3o2)CC1 | · | · | · | – | – | ·
COc1ccc(C)c2sc(N(CCCN(C)C)C(=O)c3ccc(S(=O)(=O)N4CCc5ccccc5C4)cc3)nc12 | – | 95 | – | – | – | –
C[C@H](CO)N1C[C@H](C)[C@H](CN(C)C(=O)c2ccncc2)Oc2cc(/C=C/c3ccccc3)ccc2S1(=O)=O | – | – | – | – | – | –
CS(=O)(=O)c1ccccc1C(=O)Nc1nc2ccccc2[nH]1 | – | – | – | · | – | –
CN(C)S(=O)(=O)c1ccc(Cl)c(C(=O)Nc2nc3ccccc3[nH]2)c1 | – | – | – | – | – | 30
Cc1noc(C)c1NC(=O)N[C@H]1CC[C@@H](CC(=O)NCCCN(C)C)O[C@H]1CO | – | – | 16 | – | – | –
Cc1ccccc1NC(=S)c1nc2ccccc2[nH]1 | 27 | – | – | – | – | –
Cc1ccc(-c2ccc([C@@H]3[C@@H](CO)N4CCCCN(S(=O)(=O)c5cccc(C)c5)C[C@@H]34)cc2)cc1 | – | – | 17 | – | – | ·
Cc1ccc(-c2ccc([C@H]3[C@@H](CO)N4CCCCN(S(=O)(=O)c5cccc(C)c5)C[C@H]34)cc2)cc1 | – | 70 | 19 | – | – | ·
C[C@@H]1CN([C@H](C)CO)C(=O)c2cc(NS(=O)(=O)c3ccccc3)ccc2O[C@H]1CN(C)C(=O)NC1CCCCC1 | – | – | – | – | – | 40
C[C@H](CO)N1C[C@H](C)[C@@H](CN(C)C(=O)NC2CCCCC2)Oc2ccc(NS(=O)(=O)c3ccccc3)cc2C1=O | – | – | – | – | – | 49!
C[C@@H]1CN([C@@H](C)CO)C(=O)c2cc(NS(=O)(=O)c3ccccc3)ccc2O[C@@H]1CN(C)C(=O)NC1CCCCC1 | – | – | – | – | – | –
C[C@H]1CN([C@@H](C)CO)C(=O)c2cc(NS(=O)(=O)c3ccccc3)ccc2O[C@H]1CN(C)C(=O)NC1CCCCC1 | – | – | – | – | – | –
Cc1noc(C)c1NC(=O)Nc1ccc2c(c1)C(=O)N([C@H](C)CO)C[C@@H](C)[C@H](CN(C)Cc1ccc3c(c1)OCO3)OCCCC[C@H](C)O2 | · | · | · | – | – | –
COc1ccc(NC(=O)N[C@H]2CC[C@@H](CCn3cc(-c4ccc(OC)cc4)nn3)O[C@@H]2CO)cc1 | – | – | – | – | – | –
SMILES | AF4-AF9 inh | RAD52 anneal inh | SIRT5 inh | RAD54 inh | UUG fidelity | E-sel inducer
O=C(c1cccc(S(=O)(=O)NCc2ccccc2)c1)N1CCN(c2ccc(F)cc2)CC1 | 26 | – | – | – | – | –
C[C@@H]1CN([C@H](C)CO)C(=O)c2cc(NC(=O)Nc3cccc4ccccc34)ccc2O[C@@H]1CN(C)Cc1ccc(C(=O)Nc2ccccc2N)cc1 | – | – | 15 | – | – | –
CC(C)NC(=O)Nc1ccc2c(c1)C(=O)N([C@@H](C)CO)C[C@H](C)[C@H](CN(C)Cc1ccc(-c3ccccc3)cc1)O2 | – | – | – | – | · | –
C[C@@H]1CN([C@@H](C)CO)C(=O)c2cc(NC(=O)C3CCCCC3)ccc2O[C@@H]1CN(C)Cc1ccc(-c2ccccc2)cc1 | – | – | – | – | – | –
C[C@H]1CN([C@@H](C)CO)C(=O)c2cc(NC(=O)C3CCCCC3)ccc2O[C@H]1CN(C)Cc1ccc(-c2ccccc2)cc1 | – | – | 40! | – | – | –
C[C@H]1CN([C@@H](C)CO)C(=O)c2cc(NC(=O)C3CCCCC3)ccc2O[C@H]1CN(C)Cc1ccc(C(=O)Nc2ccccc2N)cc1 | – | – | – | – | – | 29
C[C@@H]1CN([C@@H](C)CO)C(=O)c2cc(NC(=O)C3CC3)ccc2O[C@H]1CN(C)Cc1ccc(C(=O)Nc2ccccc2N)cc1 | – | – | – | – | – | –
CC(C)NC(=O)Nc1ccc2c(c1)C(=O)N([C@H](C)CO)C[C@@H](C)[C@@H](CN(C)Cc1ccc(-c3ccccc3)cc1)O2 | – | – | 16 | – | · | –
C[C@@H]1CN([C@H](C)CO)C(=O)Cc2cc(NC(=O)C3CCCCC3)ccc2O[C@@H]1CN(C)Cc1ccc(-c2ccccc2)cc1 | – | – | 102 | – | – | –
C[C@H]1CN([C@@H](C)CO)C(=O)Cc2cc(NC(=O)C3CCCCC3)ccc2O[C@@H]1CN(C)Cc1ccc(-c2ccccc2)cc1 | – | – | – | – | – | –
COc1cccc2c1C(=O)c1c(O)c3c(c(O)c1C2=O)C[C@](O)(C(C)=O)C[C@H]3O[C@@H]1C[C@@H](N)[C@@H](O)[C@@H](C)O1 | ? | – | – | – | – | 146
CC(C)NC(=O)N1C[C@H]2[C@@H](c3ccccc31)[C@@H](CO)N2C(=O)c1ccncc1 | – | – | – | – | – | –
CCCCCCOc1ccc(N2C(=O)CC(N3CCN(CCN=CC4C(=O)CC(C)(C)CC4=O)CC3)C2=O)cc1 (stereo not given) | – | – | 112 | · | · | ·
O=C(C[C@H]1C[C@@H]2c3cc(NC(=O)NC4CCCC4)ccc3O[C@@H]2[C@H](CO)O1)NCCc1ccccc1 | – | – | – | – | – | –
C[C@@H]1CN([C@@H](C)CO)S(=O)(=O)c2ccc(C#Cc3ccc(F)cc3)cc2O[C@H]1CN(C)C(=O)NC1CCCCC1 | – | – | 19 | – | – | –
